Results reported in PMC3870192.

Experiments:
[1] = system: Cc1cccc2c(C[C@H](N)C(=O)O)c[nH]c12; assay: purified protein; type: biochemical, Plenodomus lingam; conditions: 1 mM [1-14C]DMAPP, 100 mM Tris-HCl pH 8.0, 2% glycerol, 30 °C
[2] = system: COc1cccc2[nH]cc(C[C@H](N)C(=O)O)c12; assay: purified protein; type: biochemical, Plenodomus lingam; conditions: 1 mM [1-14C]DMAPP, 100 mM Tris-HCl pH 8.0, 2% glycerol, 30 °C

How did the kcat [1] turn out when “SirD (tyrosine O-prenyltransferase; dimethylallyltyrosine synthase) (Plenodomus lingam)” was run?
Its kcat is 0.013 ± 0.001 s⁻¹.

What about the kcat [2] of the same substance?
Its kcat is 0.013 ± 0.003 s⁻¹.
